No end group written: not given here.
Columns and labels:
[1] = tested on: retinal ganglion cells (RGCs); assay: RGC survival after optic nerve crush (FluroGold backfilling, retinal wholemounts); assay type: in vivo; conditions: weekly intravitreal injection (0, 7, 14 days) of 1.88 nM in 5 μl PBS, 21 days after ONC, rat; n = 6 rats/12 eyes; ONC + PBS 295 ± 15
Protocol: In a separate set of experiments comprising the same treatment groups, 6 rats/treatment (i.e. 12 eyes/optic nerves/treatment) were used to evaluate RGC axon regeneration by immunostaining with growth-associated protein-43 (GAP-43) in the optic nerve.
In further experiments, 12 rats (24 eyes/optic nerves)/treatment received 1.88 nM PEDF-34 eye drops daily. Six rats (12 eyes)/treatment were used to assess RGC survival at 21 days using FG backfilling, whilst the remaining 6 rats (12 eyes/optic nerves)/treatment were used to evaluate RGC axon regeneration at 21 days by GAP-43 immunohistochemistry. […]
Nineteen days after ONC, FG (Cambridge Biosciences, Cambridge, UK) was injected into the optic nerve, between the lamina cribrosa and the ONC site ([Vigneswara et al., 2013, 2014]). […] The identity of individual retinae was anonymised by a second investigator before image capture using a Zeiss epifluorescent microscope and the number of FG^+ RGCs counted in ImagePro Version 6.0 (Media Cybernetics) from captured images of 12 rectangular areas, 3 from each quadrant, placed at radial distances from the centre of the optic disc of the inner (1/6 eccentricity), midperiphery (1/2 eccentricity) and outer retina (5/6 eccentricity). The mean densities of FG^+ RGCs/mm^2 for each retina were determined.

[2] = Accumulation of PEDF-34 in the eye after eye drops, western blot and densitometry; assay type: in vivo, rat; conditions: for fold increase in PEDF-34 in vitreous and retina over intact eyes: single eye drop of 1.88 nM, western blot densitometry
Protocol: Protein extraction and western blots were performed according to our previously published methods ([Vigneswara et al., 2013, 2014]). Briefly, tissues from 6 rats/treatment (i.e. 12 retinae) were homogenised in ice-cold lysis buffer (20 mM Tris, pH 7.4, 2 mM EDTA, 0.5 mM EGTA, 150 mM NaCl, 1% NP-40 and 5 μl/ml protease inhibitor cocktail) and 40 μg of total protein was resolved in 12% SDS gels, transferred to polyvinylidene fluoride membranes (Millipore, Watford, UK) and probed overnight at 4 °C with appropriate antibodies. Bands were detected with HRP-labelled secondary antibodies (GE Healthcare, Buckinghamshire, UK) using an enhanced chemiluminescence kit (GE Healthcare).
Western blots were scanned into Adobe Photoshop (Adobe Systems Inc., San Jose, CA, USA) keeping all scanning parameters the same between blots. Bands were then analysed using the built-in-macros for gel analysis in ImageJ (NIH, USA, http://imagej.nih.gov/ij) and means ± SEM plotted in Microsoft Excel (Microsoft Corporation, CA, USA) ([Ahmed et al., 2005, 2006a, 2011; Douglas et al., 2009]). The integrated density of each protein band in each lane was derived from 3 separate blots from 3 independent experiments.

[3] = daily eye drops of 1.88 nM for 28 days, ELISA
[4] = Ophthalmoscope monitoring for corneal reactions to PEDF-34 eye drops; assay type: in vivo, rat; conditions: daily eye drops of 1.88 nM for 28 days
Protocol: Eyes receiving eye drops were carefully monitored with an ophthalmoscope for signs of corneal reactions to PEDF-34, including redness, inflammation or opacity throughout the duration of the experiment. […] Daily PEDF-34 eye drops induced a gradual increase in the levels of PEDF-34 in both the vitreous and the retina over the first 7 days which peaked at 14 days to 1.4 ± 0.045 nM and 0.65 ± 0.025 nM, respectively (Fig. 4). After extending the treatments for 28 days, no further increase in the level of PEDF-34 was apparent in either the vitreous or retina (Fig. 4).

Sequence: DPFFKVPVNKLAAAVSNFGYDLYRVRSSTSPTTN [PEDF-34]
- number of FG+ RGC surviving [1]: 1720 ± 38 RGCs/mm^2
- time within which PEDF-34 accumulates in the vitreous ([2]; after eye drop delivery of 1.88 nM): ≤ 0.5 h
- fold increase in PEDF-34 in vitreous and retina over intact eyes ([2]; 0.5 h, 3 blots from 3 independent experiments): 4.9 fold
- fold increase in PEDF-34 in vitreous and retina over intact eyes ([2]; 4 h): 3.8 fold
- fold increase in PEDF-34 in vitreous and retina over intact eyes ([2]; 24 h): 1.8 fold
- time at which levels in vitreous and retina peaked (plateau thereafter) [3]: 14 days
- signs of corneal reactions (redness, inflammation or opacity) [4]: None of the PEDF-34 treated eyes exhibited any of these symptoms

Source: article PMC4604765, “Eye drop delivery of pigment epithelium-derived factor-34 promotes retinal ganglion cell neuroprotection and axon regeneration” (Molecular and Cellular Neurosciences, 2015)
